Results taken from BindingDB's records for doi:10.1124/jpet.105.096792 (University of Tours, 2006).

By UniProt entry, the sequences of proteins in these tests, tags left out.
UniProt P23977, whole entry: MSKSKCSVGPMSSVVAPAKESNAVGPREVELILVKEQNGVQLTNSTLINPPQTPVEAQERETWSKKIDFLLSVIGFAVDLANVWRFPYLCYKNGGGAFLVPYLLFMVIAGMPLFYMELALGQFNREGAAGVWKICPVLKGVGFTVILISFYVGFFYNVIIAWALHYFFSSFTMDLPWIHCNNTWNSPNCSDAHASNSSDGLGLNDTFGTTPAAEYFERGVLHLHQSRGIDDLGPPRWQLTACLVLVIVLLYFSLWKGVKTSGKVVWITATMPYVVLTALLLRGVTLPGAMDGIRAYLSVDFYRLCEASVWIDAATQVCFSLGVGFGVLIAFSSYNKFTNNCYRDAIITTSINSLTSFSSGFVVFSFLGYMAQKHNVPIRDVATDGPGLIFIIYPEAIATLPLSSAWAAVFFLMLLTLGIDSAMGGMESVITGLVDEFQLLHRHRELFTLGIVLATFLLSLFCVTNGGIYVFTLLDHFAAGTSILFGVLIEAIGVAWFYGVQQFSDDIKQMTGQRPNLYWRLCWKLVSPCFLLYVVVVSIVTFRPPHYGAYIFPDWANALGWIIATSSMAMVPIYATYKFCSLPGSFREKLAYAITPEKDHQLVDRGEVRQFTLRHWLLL

Target: Sodium-dependent dopamine transporter (Rattus norvegicus, UniProt P23977)

Ki: 1000 nM
SMILES: Fc1ccc(C2CCNCC2COc2ccc3c(c2)OCO3)cc1 (stereo unspecified) [NSC_43815]
